Test results from patent US5643784A, “Indan derivatives” (H, Lundbeck A/S, priority 1990, dated 1997).

Amino acid sequences for entries named in this document (tags omitted).
UniProt P14842, whole entry: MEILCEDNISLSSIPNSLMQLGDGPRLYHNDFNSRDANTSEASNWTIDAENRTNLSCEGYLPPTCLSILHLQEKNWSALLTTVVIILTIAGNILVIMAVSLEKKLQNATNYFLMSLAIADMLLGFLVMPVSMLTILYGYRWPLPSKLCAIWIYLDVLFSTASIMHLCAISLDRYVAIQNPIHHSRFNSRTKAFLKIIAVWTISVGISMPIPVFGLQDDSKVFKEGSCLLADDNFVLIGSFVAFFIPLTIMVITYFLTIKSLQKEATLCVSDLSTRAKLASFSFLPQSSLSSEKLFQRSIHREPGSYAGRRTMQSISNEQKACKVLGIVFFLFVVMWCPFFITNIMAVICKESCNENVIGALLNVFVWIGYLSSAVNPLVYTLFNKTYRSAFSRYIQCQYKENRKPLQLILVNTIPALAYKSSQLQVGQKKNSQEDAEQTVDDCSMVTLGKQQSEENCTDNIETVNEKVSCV

Target: T1, 5-HT2 receptors (Rattus norvegicus, UniProt P14842)
T1 construct: cortical tissue is dissected and weighed; from tissue; host or cells: cortex of male Wistar rats, crude membranes
Assay: Inhibition of 3H-ketanserin binding to 5-HT2 receptors in rat cortex in vitro
Details: 3H-Ketanserin 0.5 nM, 37° C., 30 min, read-out: Receptor Binding, IC50 5-HT2 3H-Ket
Experimental: INHIBITION OF ^3 H-KETANSERIN BINDING TO 5-HT2 RECEPTORS IN RAT CORTEX IN VITRO
By this method the inhibition by drugs of the binding of ^3 H-Ketanserin (0,5 nM) to Serotonin S2 (5-HT2) receptors in membranes from rat is determined in vitro. Method in Hyttel, Pharmacology & Toxicology, 61, 126-129, 1987.
Male Wistar (Mol:Wist) rats (125-250 g) are sacrificed and cortical tissue is dissected and weighed. The tissue is homogenized (Ultra Turrax, 10 sec.) in 10 ml of ice-cold 50 mM tris buffer pH 7.7 (at 25° C.). The centrifuge glassware used in this step has been rinsed by sonication for 10 min. in ethanol. The homogenate is centrifuged twice at 20,000 g for 10 min. at 4° C. with rehomogenization of the pellet in 10 ml ice-cold buffer. The final pellet is homogenized in 500 vol (w/v) ice-cold buffer.
Incubation tubes kept on ice in triplicate receive 100 μl of drug solution in water (or water for total binding) and 2000 μl of tissue suspension (final tissue content corresponds to 4 mg original tissue). […] After shaking for 1 h and storage 2 hrs in the dark the content of radioactivity is determined by liquid scintillation counting. […]
The measured cpm are plotted against drug concentration on semilogarithmic paper and the best fitting S-shaped curve is drawn. […]

Cc1nc2sccn2c(=O)c1CCN1CCC(=C(c2ccc(F)cc2)c2ccc(F)cc2)CC1 [Ritanserin, reference compound]
IC50: 400 pM
